Measured values: PubChem BioAssay AID1259422 (The Scripps Research Institute Molecular Screening Center, 2018)
The list shows a part of the results, in another mix than the full data. Active and inactive are the calls of the source. No stated cut-off is given here; in the data, active means inhibition above about 32%; inactive means the rest.

Experiment: TEAD-YAP interaction inhibition, primary screen, TEAD-YAP interaction inhibitor project, luminescence, HEK-TIYL cells (AID 1259422);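 further: 0% = median of test compound wells and 100% = reference inhibitor wells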
Settings: TEAD-Gal4/YAP UAS-luciferase luminescence, at 9.12 µM, hits give high values

Row | Structure (SMILES) | inhibition
1 | CN(CCCl)CCCl | inactive: -3.09%
